This is a selection; strong and weak results do not stand in their true shares. Results filed as inconclusive are left out. The source made the active and inactive calls. The call rests on the fitted dose curve; in most records, active means well fitted inhibition curve with a large enough effect; inconclusive means small, poorly fitted or top-dose-only effect; inactive means flat fitted curve, though single readings scatter.
Experiment: Cytotoxic Profiling in HEK 293 Cell Line of Diverse Libraries Using Quantitative High-Throughput Screening; further: nearly all actives have a fitted effect of over 60% in size
Conditions: HEK 293 viability, ATP luminescence (CellTiter-Glo), 48-72 h; at 230 µM (top of the series) unless noted
From the text: Cell-based phenotypic screening is a commonly used approach to discover biological pathways, novel drug targets, chemical probes and high-quality hit-to-lead molecules. Many hits identified from high-throughput screening campaign are ruled out through a series of follow-up potency, selectivity/specificity, and cytotoxicity assays. Prioritization of molecules with little or no cytotoxicity for a more in-depth downstream evaluation influence the future direction of projects, so cytotoxicity profiling of the screening libraries at early stage is essential for increasing the likelihood of candidate success. In this study, we analyzed results from a cell-based cytotoxicity screening campaign, comprising nearly 10,000 compounds in NCATS annotated libraries, and over 100,000 compounds in a diversity library, evaluated in four normal cell lines (HEK 293, NIH 3T3, CRL-7250 and HaCat) and a cancer cell line (KB 3-1, a HeLa subline) with overall screening outcomes, hit rates, pan-activity and selectivity. […]
HEK 293 cells were seeded into white 1536-well plates using a Multidrop Combi peristaltic dispenser (ThermoFisher, Waltham, MA) at a density of 250 cells/well in 5 uL of medium respectively. […] Plates were left at room temperature for 10 min before imaging the ATP-coupled luminescence using a ViewLux microplate imager (PerkinElmer, Waltham, MA).
On the % scale 0 is the no-effect control and ±100 the full control effect.

| Compound | activity change, negative = cytotoxicity |
| --- | --- |
| CNCc1cccc(C)n1 | inactive: 0% |
| CNCc1cc2ccccc2o1 | inactive: -6.79% [at 172 µM] |
